In ChEMBL document CHEMBL1156692, “Synthesis of novel 7-benzylamino-2H-1,4-benzoxazin-3(4H)-ones as anticonvulsant agents” (Eur J Med Chem, 2008):

Species: Mus musculus
Experiment: Protective index, ratio of TD50 for C57B/6 mouse by rotarod test to ED50 for C57BL/6 mouse by MES test
Format: functional

NC(=O)N1c2ccccc2C=Cc2ccccc21 [CARBAMAZEPINE]
Ratio: 8.1
